Measurements reported in patent US10800813 (Bicycle, dated 2020).

Amino acid sequences for entries named in this document (tags omitted). Residues count along the entry.
UniProt P03952, 20-638 limits assumed: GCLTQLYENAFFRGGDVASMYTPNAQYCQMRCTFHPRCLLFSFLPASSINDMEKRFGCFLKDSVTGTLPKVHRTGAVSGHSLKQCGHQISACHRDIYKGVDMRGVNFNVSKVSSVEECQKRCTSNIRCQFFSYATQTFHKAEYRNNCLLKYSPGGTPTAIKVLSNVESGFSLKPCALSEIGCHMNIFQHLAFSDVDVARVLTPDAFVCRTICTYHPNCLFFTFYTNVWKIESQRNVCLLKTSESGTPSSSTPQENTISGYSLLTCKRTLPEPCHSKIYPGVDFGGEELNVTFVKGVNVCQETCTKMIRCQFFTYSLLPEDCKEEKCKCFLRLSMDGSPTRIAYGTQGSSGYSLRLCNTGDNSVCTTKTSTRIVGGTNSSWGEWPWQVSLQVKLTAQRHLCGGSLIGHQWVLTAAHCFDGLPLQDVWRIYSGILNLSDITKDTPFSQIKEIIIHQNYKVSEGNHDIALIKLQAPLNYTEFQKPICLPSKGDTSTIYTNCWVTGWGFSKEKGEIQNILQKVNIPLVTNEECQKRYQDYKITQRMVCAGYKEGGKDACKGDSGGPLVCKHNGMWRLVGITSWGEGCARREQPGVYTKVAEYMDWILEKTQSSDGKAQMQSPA
UniProt P14272, 391-638 limits assumed: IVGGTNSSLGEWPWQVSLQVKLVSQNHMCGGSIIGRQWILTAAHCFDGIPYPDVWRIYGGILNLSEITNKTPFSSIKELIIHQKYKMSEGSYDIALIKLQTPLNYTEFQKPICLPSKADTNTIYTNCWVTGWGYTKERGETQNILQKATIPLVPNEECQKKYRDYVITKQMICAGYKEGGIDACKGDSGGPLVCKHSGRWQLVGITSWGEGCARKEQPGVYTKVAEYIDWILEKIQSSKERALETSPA

Legend:
Test in all cases: enzyme inhibition assay
human plasma Kallikrein [1] = biological target: T1, human plasma Kallikrein (human, UniProt P03952 20-638, limits assumed)
T1 construct: also called hPK; human PK

human plasma Kallikrein [2] = biological target: T1, human plasma Kallikrein; remark: listed apart in the source
human plasma Kallikrein [3] = biological target: T1, human plasma Kallikrein; remark: listed apart in the source
Rat plasma Kallikrein = biological target: T2, Rat plasma Kallikrein (rat, UniProt P14272 391-638, limits assumed)
T2 construct: domain: catalytic domain; also called rPK; rat PK

human plasma Kallikrein [4] = biological target: T1, human plasma Kallikrein; remark: listed apart in the source

Ki (human plasma Kallikrein [1]) [nM] | Binder | IC50 (human plasma Kallikrein [3]) [nM] | also measured
0.16 | ACAWPARCLTTSLCG (3 Cys on TMB scaffold, also called PK104) [1E6] |  | 
1.27 | ACFPSHDCDGRRMCA (3 Cys on TMB scaffold, also called PK116) [06-143] |  | 
 | ACFKACRVNCA (3 Cys on TMB scaffold, also called PK117) [3B3] |  | Ki (human plasma Kallikrein [2]): 0.59 nM
2.1 | ACGGPQNCRTWTTCA (3 Cys on TMB scaffold, also called PK114) [06-56] |  | 
 | ACRWPARCVHQDLCA (3 Cys on TMB scaffold, also called PK101) [06-34] | 0.19 | IC50 (Rat plasma Kallikrein): 7.38 nM; Ki (human plasma Kallikrein [4]): 0.128 nM
 | ACSWPAKCLHQDLCA (3 Cys on TMB scaffold, also called WPAK peptide) [06-34-19 (01 + 05 + R/K)] | 0.19 | 

Where two headings read alike, the source gives them in different places.
